Assay results as given in patent publication US9174984B2, “Chemical compounds” (GlaxoSmithKline Intellectual Property (No. 2) Limited, priority 2011, dated 2015).

The chains behind the UniProt entries cited, without tags or fusion partners. Where a name states a change or a piece, a line headed by the entry shows the natural chain unless it says otherwise.
UniProt P26358: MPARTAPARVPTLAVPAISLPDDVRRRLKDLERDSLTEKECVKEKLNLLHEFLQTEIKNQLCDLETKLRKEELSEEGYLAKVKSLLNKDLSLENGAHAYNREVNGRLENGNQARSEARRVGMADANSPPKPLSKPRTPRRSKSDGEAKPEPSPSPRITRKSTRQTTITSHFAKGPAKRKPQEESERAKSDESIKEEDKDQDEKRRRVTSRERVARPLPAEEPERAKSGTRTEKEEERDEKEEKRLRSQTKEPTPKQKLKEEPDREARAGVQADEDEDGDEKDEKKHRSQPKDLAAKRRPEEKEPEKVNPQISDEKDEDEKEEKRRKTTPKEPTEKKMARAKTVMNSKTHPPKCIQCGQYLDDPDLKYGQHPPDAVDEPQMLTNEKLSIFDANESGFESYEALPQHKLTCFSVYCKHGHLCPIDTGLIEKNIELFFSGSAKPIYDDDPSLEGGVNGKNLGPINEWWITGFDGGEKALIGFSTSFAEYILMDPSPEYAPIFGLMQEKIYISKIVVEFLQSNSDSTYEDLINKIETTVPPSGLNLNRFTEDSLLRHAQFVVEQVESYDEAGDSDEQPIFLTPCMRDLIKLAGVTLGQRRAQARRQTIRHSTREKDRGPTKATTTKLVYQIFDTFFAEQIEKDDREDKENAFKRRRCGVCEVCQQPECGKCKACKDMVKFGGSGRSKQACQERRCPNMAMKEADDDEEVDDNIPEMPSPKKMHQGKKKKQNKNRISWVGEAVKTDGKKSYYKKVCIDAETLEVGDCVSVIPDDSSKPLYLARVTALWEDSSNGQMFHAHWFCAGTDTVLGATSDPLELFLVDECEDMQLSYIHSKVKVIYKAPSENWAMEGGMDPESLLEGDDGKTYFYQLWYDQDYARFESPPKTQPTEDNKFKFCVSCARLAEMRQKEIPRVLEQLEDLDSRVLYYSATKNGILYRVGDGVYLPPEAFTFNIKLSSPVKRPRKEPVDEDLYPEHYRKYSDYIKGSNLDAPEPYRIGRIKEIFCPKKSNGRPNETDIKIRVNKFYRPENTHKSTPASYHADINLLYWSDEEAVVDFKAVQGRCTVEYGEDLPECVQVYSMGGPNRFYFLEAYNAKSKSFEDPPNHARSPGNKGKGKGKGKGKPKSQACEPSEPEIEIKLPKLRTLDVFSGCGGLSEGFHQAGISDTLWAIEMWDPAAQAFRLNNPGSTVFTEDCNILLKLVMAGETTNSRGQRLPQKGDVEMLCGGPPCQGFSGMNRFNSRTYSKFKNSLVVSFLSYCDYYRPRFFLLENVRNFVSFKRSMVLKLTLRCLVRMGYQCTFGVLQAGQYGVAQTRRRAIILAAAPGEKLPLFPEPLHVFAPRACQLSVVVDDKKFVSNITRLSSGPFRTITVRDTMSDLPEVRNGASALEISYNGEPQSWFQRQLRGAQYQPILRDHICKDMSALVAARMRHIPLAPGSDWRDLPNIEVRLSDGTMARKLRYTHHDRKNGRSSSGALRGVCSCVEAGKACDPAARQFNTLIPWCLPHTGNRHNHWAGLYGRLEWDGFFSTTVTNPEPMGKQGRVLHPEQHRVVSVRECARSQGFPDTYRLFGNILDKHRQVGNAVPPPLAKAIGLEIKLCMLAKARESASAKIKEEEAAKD

Molecular target: T1, Human full-length DNMT1 (Homo sapiens, UniProt P26358)
T1 construct: Human full-length DNMT1 enzyme purchased from BPS Biosciences; purchased BPS Biosciences
Experiment: DNMT inhibition assay (3H-SAM filter-binding) against DNMT1
Format: biochemical
Settings: read-out: IC50 against DNMT 1

Q: Which IC50 does the source give for `C#CC(=O)Nc1cccc(CNC(=S)NCc2ccnc3[nH]ccc23)c1` [Example 6, N-(3-((3-((1H-Pyrrolo[2,3-b]pyridin-4-yl)methyl)thioureido)methyl)phenyl)propiolamide] here?
A: 19.1 to 300 µM
